Source: PubChem BioAssay AID1347165 (National Center for Advancing Translational Sciences (NCATS), 2019)
This is a selection; strong and weak results do not stand in their true shares. Records with an inconclusive call do not appear. Calls of active or inactive are those of the source. Calls follow the shape of the dose curve; as a rule, active = well fitted inhibition curve with a large enough effect; inconclusive = small, poorly fitted or top-dose-only effect; inactive = no such curve, though single readings can be large or run the other way.

By UniProt entry, the sequences of proteins in these tests, tags left out. Where a name states a change or a piece, a line headed by the entry shows the natural chain unless it says otherwise.
UniProt Q9UGL1: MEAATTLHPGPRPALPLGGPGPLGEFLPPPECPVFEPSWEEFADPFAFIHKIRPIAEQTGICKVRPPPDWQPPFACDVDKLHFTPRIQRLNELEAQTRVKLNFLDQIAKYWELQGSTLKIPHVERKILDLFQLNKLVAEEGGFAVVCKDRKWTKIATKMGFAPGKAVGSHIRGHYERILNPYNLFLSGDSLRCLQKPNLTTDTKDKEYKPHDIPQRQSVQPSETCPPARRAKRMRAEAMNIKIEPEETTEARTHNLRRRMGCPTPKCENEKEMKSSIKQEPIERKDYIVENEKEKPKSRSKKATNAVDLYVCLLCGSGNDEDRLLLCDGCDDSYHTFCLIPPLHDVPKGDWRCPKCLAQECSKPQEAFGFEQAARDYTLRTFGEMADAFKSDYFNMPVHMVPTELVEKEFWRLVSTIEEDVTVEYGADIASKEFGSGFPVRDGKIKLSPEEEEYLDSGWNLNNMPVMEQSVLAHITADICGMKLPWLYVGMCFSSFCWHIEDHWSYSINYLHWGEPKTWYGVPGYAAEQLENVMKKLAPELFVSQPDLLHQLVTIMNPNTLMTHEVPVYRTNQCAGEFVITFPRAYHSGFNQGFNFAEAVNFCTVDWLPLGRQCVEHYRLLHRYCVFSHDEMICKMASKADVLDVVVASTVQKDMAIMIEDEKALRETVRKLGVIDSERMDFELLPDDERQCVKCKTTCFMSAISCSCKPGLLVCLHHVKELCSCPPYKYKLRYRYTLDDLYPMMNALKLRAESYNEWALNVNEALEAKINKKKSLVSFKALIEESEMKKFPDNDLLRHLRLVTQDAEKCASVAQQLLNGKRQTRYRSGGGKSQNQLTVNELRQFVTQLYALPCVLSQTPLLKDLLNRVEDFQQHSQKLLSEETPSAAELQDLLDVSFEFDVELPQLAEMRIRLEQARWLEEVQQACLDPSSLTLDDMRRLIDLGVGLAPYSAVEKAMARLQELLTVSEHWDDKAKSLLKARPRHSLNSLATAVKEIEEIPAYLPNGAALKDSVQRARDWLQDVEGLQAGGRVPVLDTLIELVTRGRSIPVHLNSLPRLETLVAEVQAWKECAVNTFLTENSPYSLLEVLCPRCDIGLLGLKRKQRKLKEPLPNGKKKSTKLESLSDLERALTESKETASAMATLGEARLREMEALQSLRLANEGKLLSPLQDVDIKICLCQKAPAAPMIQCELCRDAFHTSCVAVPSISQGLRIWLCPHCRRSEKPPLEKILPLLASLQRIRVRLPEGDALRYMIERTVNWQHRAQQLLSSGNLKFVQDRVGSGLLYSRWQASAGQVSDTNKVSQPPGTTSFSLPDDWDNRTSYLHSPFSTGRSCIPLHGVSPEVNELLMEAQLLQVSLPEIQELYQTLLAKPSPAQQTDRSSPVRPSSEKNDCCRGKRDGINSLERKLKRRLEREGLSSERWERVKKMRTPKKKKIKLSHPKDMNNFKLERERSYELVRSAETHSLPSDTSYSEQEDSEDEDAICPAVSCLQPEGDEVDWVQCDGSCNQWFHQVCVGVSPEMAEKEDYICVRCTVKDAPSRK

Target: Lysine-specific demethylase 5B (Homo sapiens) (UniProt Q9UGL1)
Experiment: Primary screen for KDM5B Histone Demethylases FDH-coupled qHTS; also: 0% is about no effect; nearly all actives have a fitted effect of over 70% in size
Details: FDH-coupled NADH fluorescence (FDH is formaldehyde dehydrogenase); at 57.7 µM (top of the series)
Source text: Assay Submitter (PI): Qin Yan, Ph.D. (Yale University) and Xiaodong Cheng, Ph.D. (MD Anderson) This project was funded as part of the NCI NEXT Program and Chemical Biology Consortium (CBC) The histone demethylases, KDM5A and KDM5B catalyze the demethylation of lysine 4 on histone H3 (H3K4me3/2). They are overexpressed in a variety of cancers and have been implicated in cancer cell growth, metastasis, drug resistance, and tumor growth. KDM5A is amplified and overexpressed in breast and gastric cancer; and is translocated in leukemia. While KDM5B is highly expressed in human mammary tumors and breast cancer cell lines, but not in normal adult breast tissue. Moreover, knockdown of KDM5B leads to upregulation of tumor suppressor genes, including BRCA1. The goal of this project is to employ qHTS to identify selective small molecule inhibitors of KDM5A/B demethylase activity to better understand the role of KDM5 in cancer and to develop novel therapies. We employed an FDH-coupled assay previously reported by Sakurai et al. to monitor in vitro KDM5 demethylase activity. Compounds showing dose response inhibition are re-acquired, validated, and tested for non-specific interference with the formaldehyde dehydrogenase (FDH) counterscreen. True inhibitors are validated using an AlphaLisa secondary screen, which employs an H3K4(me2-1)-specific antibody to monitor demethylation of a biotin-tagged H3K4(me3) peptide substrate. Inhibitors are profiled against KDM4A and KDM6A AlphaLisa counterscreens to determine level of demethylase specificity; and against the TruHits counterscreen to eliminate non-specific inhibitory activity on the AlphaLISA detection method. Selective inhibitors identified from the primary and secondary screening are tested in cells using immunofluorescence to monitor global H3K4 tri-methylation as a measure of KDM5A/B inhibition. Early Translation Branch (ETB) National Center for Advancing Translational Sciences (NCATS), Rockville, MD National Institute of Health (NIH), Bethesda, Maryland [1] Sakurai, M et al. A miniaturized screen for inhibitors of Jumonji histone demethylases. Mol Biosyst. 2010 Feb;6(2):357-64. doi: 10.1039/b912993f. Epub 2009 Oct 8.
Materials: 1536-well Black, solid bottom, medium binding assay plate is purchased from Greiner Bio-one. The enzymes (KDM5B) and substrate (H3K4me3/2) are provided by the principal investigators. The buffer for this assay is composed of 50mM HEPES at pH 7.5 with 0.01% Tween-20. FDH coupled Demethylase qHTS protocol: Three microliter enzyme mix (buffer + 200nM KDM5BDeltaAP final concentration) is dispensed into the assay plate using the BioRAPTR Flying Reagent Dispenser (FRD; […]). Compound (at various final concentration) and control solution is pin transferred to the assay plate using the Kalypsys 1536-pin tool apparatus. The assay plate is incubated for 10 min at room temperature followed by addition of 1uL substrate mix (buffer + 100uM ascorbic acid, 50uM ferrous ammonium sulfate, 12.5uM H3K4Me3, 25uM a-ketoglutarate, 0.25 mM NAD+, 0.25 U/mL formaldehyde dehydrogenase using the FRD yielding a total reaction volume of 4 uL. Initial fluorescence (Read1) is detected using the PerkinElmer ViewLux plate reader equipped with 340 nm excitation and 450 nm emission filters. The final fluorescence (Read2) signal is obtained after 30 min of room temperature incubation. Delta RFU is calculated (Read2 - Read1) and is used to generated dose response curves.

| Compound | activity change, negative = inhibition |
| --- | --- |
| Nc1ccc([As](=O)(O)c2ccc(N)cc2)cc1 | inactive: -12.8% |
| CC(C)(C)C(=O)NC(Sc1ccncn1)C(Cl)(Cl)Cl (stereo not given) | inactive: -12.9% |
| BrCCNCCc1ccncc1 | inactive: -11.9% |
| CCn1nc(C(=O)NCC2(N3CCCCC3)CCCCC2)c2ccccc2c1=O | inactive: -3.71% |
| CN(C)C(=O)Oc1noc2ccccc12 | inactive: 32.4% |
| Nc1ccc([As](=O)(O)c2ccc([N+](=O)[O-])cc2)cc1 | inactive: 14.9% |
| CN(C)C1(CNC(=O)c2ccc(Cl)c(S(N)(=O)=O)c2)CCCCC1 | inactive: 24.9% |
| O=P(Nc1nc2ccccc2s1)(c1ccccc1)c1ccccc1 | inactive: 13.9% |
| ClCCNC1C2CC3CC(C2)CC1C3 (stereo not given) | inactive: -24.6% |
| CCOP(=O)(NC(=NC(C)c1ccccc1)NC(C)c1ccccc1)OCC (stereo not given) | inactive: 31.4% |
| Nc1cccc([As](=O)(O)c2ccccc2)c1 | inactive: 16.8% |
| Cc1ccc(C(=O)NC(Sc2ccccc2)C(Cl)(Cl)Cl)cc1 (stereo not given) | inactive: -3.7% |
| Cc1ccc(C(=O)NC(Sc2ccc(Cl)cc2)C(Cl)(Cl)Cl)cc1 (stereo not given) | inactive: -20.1% |
| CCCOP(=S)(Nc1nc(N)cc(=O)[nH]1)OCCC | inactive: 18.8% |
| NNc1ccc([N+](=O)[O-])cc1[N+](=O)[O-] | inactive: -16% |
| CS(=O)(=O)c1ccc(Cl)c(NC(=O)COC(=O)C(O)(c2ccccc2)c2ccccc2)c1 | inactive: 7.31% |
| Fc1ccc(NC2=NCC(CI)S2)c(F)c1 (stereo not given) | inactive: -6.4% |
| BrCC1CN=C(Nc2ccccc2)S1 (stereo not given) | inactive: 9.96% |
| O=C(NC(Sc1ccc(Cl)cc1)C(Cl)(Cl)Cl)c1ccccc1 (stereo not given) | inactive: -16.2% |
| Fc1ccc(CNC2=NCC(CBr)S2)cc1 (stereo not given) | inactive: 10.6% |
| O=C(NC(Sc1ccccc1)C(Cl)(Cl)Cl)c1ccc(Cl)cc1 (stereo not given) | inactive: 11% |
| O=C(/C=C/c1ccccc1)NC(Sc1ccc(Cl)cc1)C(Cl)(Cl)Cl (stereo not given) | inactive: -14.5% |
| Clc1cccc(NC2=NCC(CBr)S2)c1 (stereo not given) | inactive: -0.61% |
| O=C(Nc1ccncc1[N+](=O)[O-])c1ccc([N+](=O)[O-])cc1[N+](=O)[O-] | inactive: 19.6% |
| Cc1cccc(C(=O)NC(Sc2ccccc2)C(Cl)(Cl)Cl)c1 (stereo not given) | inactive: 24.4% |
